Test results taken from PMC3805970 (Scientific Reports, 2013).

Target: T1, Epac2 (Mus musculus, UniProt Q9EQZ6)
T1 sequence (Q9EQZ6 1-993 isoform Q9EQZ6-3): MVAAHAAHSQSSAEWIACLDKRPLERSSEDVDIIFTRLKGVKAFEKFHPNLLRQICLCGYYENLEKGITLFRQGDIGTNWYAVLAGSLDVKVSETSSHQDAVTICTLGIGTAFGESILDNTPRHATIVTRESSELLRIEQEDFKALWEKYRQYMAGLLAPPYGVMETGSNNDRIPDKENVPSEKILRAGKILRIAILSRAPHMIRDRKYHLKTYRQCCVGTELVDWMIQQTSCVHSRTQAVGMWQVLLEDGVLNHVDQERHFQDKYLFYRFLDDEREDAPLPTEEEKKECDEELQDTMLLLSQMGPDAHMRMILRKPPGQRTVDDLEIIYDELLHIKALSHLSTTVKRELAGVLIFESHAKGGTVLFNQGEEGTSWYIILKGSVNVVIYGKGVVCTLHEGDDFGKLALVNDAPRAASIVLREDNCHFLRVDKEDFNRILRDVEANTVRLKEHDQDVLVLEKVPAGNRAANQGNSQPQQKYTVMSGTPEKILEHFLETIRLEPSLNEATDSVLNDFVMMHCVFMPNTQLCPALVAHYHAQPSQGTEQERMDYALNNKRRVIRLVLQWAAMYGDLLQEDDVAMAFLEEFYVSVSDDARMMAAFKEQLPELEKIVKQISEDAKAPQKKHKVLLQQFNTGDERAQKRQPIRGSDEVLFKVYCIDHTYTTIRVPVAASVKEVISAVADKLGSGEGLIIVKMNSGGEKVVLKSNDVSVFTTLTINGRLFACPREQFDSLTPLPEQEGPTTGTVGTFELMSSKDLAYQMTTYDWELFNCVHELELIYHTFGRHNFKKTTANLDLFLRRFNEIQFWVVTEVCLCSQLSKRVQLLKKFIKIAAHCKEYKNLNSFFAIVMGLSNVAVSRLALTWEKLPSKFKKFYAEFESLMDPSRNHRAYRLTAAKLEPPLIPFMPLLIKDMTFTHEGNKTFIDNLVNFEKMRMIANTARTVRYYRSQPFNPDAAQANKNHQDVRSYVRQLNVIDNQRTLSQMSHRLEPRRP
Experiment: fluorescence mGDP nucleotide exchange
Type: biochemical

- IC50: ~200 nM
SMILES: Cc1ccc(S(=O)(=O)c2c(C)cc(C)cc2C)cc1 [ESI-05, 4-Methylphenyl-2,4,6-trimethylphenylsulfone]
